The term IC50 denotes the midpoint of a concentration-inhibition curve.

The results in this text go back to article PMC12655037, “Mitochondrial-Targeted Triphenylphosphonium-Conjugated Ionophores with Enhanced Cytotoxicity in Cancer Cells” (Molecules, 2025).

For assay [1], the system named is MDA-MB-231 human breast cancer cells. Briefly: MTT assay, MDA-MB-231 cells. The format is cell-based. The settings on record: for IC50: Homo sapiens, MDA-MB-231, 72 h, read-out: IC50 MDA-MB-231.
In assay [2] the test system is MiaPaCa human pancreas cancer cells. Put plainly: MTT assay, MiaPaCa cells. Type of assay: cell-based. The settings on record: for IC50: Homo sapiens, MIA PaCa-2, 72 h, read-out: IC50 MiaPaCa. In general terms: Tetrazolium dyes change colour on reduction, which living cells bring about.
Assay [3] has as its system HaCaT human immortal keratinocytes. Put plainly: cells. The settings on record: 72 h, read-out: IC50 HaCaT (normal cells). Type of assay: cell-based.
Assay [4] deals with V79 Chinese hamster lung fibroblasts. Put plainly: MTT assay, V79 cells. The format is cell-based. The settings on record: Cricetulus griseus, Fibroblast, 72 h, read-out: IC50 V79 (normal cells).
The test system of assay [5] is SW480, SW620, PC3, MDA-MB-231, A549 and MiaPaCa cancer cell lines. Put plainly: cells. The format is cell-based. The settings on record: Homo sapiens, 72 h, read-out: IC50 values, range across tested cancer cell lines.
The subject of assay [6] is whole non-permeabilized A549 cells.
Assay [7] relates to MDA-MB-231 cells. Put plainly: MitoTracker Green FM flow cytometry (mitochondrial mass), MDA-MB-231. For orientation: A flow cytometer gives signals particle by particle.
The subject of assay [8] is MDA-MB-231 cells. Put plainly: MitoTracker Red CMXRos flow cytometry (mitochondrial membrane potential), MDA-MB-231.
The subject of assay [9] is SW480 human primary colon cancer cells. Briefly: MTT assay, SW480 cells. Type of assay: cell-based.
For assay [10], the system named is SW620 human metastatic colon cancer cells. Briefly: MTT assay, SW620 cells. Type of assay: cell-based.
Assay [11] has as its system PC3 human metastatic prostate cancer cells. Put plainly: MTT assay, PC3 cells. Type of assay: cell-based.
Assay [12] has as its system A549 human lung cancer cells. Briefly: MTT assay, A549 cells. The format is cell-based.
Assay [13] deals with MDA-MB-231 cells.

With `CCC1(C2OC(C3OC(O)(Cn4cc(C[P+](c5ccccc5)(c5ccccc5)c5ccccc5)nn4)C(C)CC3C)CC2C)CCC(C2(C)CCC3(CC(O)C(C)C(C(C)C(OC)C(C)C(=O)O)O3)O2)O1` (stereo not shown) [2a], the IC50 in assay [1] was 700 ± 200 nM; in [2], 300 ± 100 nM; in assay [3], 600 ± 200 nM; in [4], 5000 ± 40 nM; in [5], 300 to 700 nM. Besides, in [6], the “effect on oxygen flux (cellular respiration rate)” value is “only reduced baseline respiration at the highest tested concentration”. Further, the “cells positive for MTGreen fluorescence” value in the assay on MDA-MB-231 cells [7] is on record as 67.4%. In addition, the “MTRed CMXRos positive stained cells” value in the assay on MDA-MB-231 cells [8] turned out to be 13.4%.

Regarding `CCC1(C2OC(C3OC(O)(CNC(=O)CCC[P+](c4ccccc4)(c4ccccc4)c4ccccc4)C(C)CC3C)CC2C)CCC(C2(C)CCC3(CC(O)C(C)C(C(C)C(OC)C(C)C(=O)O)O3)O2)O1` (stereo not shown) [2e], the “Selectivity index (SI) HaCaT / SW480” value in assay [9] is recorded as 0.8. Moreover, the “Selectivity index (SI) HaCaT / SW620” value in [10] amounted to 1.4. The IC50 in assay [1] was over 100000 nM; in [2], over 100000 nM; in assay [3], 39200 ± 5600 nM; in [4] it was over 100000 nM. For the same compound, in assay [6], the “effect on oxygen flux (cellular respiration rate)” value is given as “no observable impact on oxygen consumption”.

`CC[C@@]1([C@@H]2O[C@@H]([C@H]3O[C@@](O)(CO)[C@H](C)C[C@@H]3C)C[C@@H]2C)CC[C@H]([C@]2(C)CC[C@]3(C[C@H](O)[C@@H](C)[C@@H]([C@@H](C)[C@@H](OC)[C@H](C)C(=O)O)O3)O2)O1` [MON, Monensin A, reference compound]: in [9], the “Selectivity index (SI) HaCaT / SW480” value worked out at 1.4 and the “Selectivity index (SI) V79 / SW480” value turned out to be 1.4. Also, in assay [10], the “Selectivity index (SI) HaCaT / SW620” value amounted to 1.3 and the “Selectivity index (SI) V79 / SW620” value was 1.3. In addition, in assay [11], the “Selectivity index (SI) HaCaT / PC3” value is given as 1.0 and the “Selectivity index (SI) V79 / PC3” value is reported as 1.1. Besides, in assay [1], the “Selectivity index (SI) HaCaT / MDA-MB-231” value is 0.7 and the “Selectivity index (SI) V79 / MDA-MB-231” value was determined as 0.7. Further, in assay [12], the “Selectivity index (SI) HaCaT / A549” value amounted to 1.3 and the “Selectivity index (SI) V79 / A549” value turned out to be 1.4. In [2], the “Selectivity index (SI) HaCaT / MiaPaCa” value amounted to 3.2 and the “Selectivity index (SI) V79 / MiaPaCa” value is recorded as 3.3. Also, the IC50 in assay [3] amounted to 3500 ± 1400 nM. The “mitochondrial ROS (mtROS) production” value in the assay on A549 cells is “no ROS generation”. Moreover, in the assay on MDA-MB-231 cells [13], the “mitochondrial ROS (mtROS) production” value was “no ROS generation”.

As to `CCC1(C2OC(C3OC(O)(COC(=O)CCC(=O)OCCC[P+](c4ccccc4)(c4ccccc4)c4ccccc4)C(C)CC3C)CC2C)CCC(C2(C)CCC3(CC(O)C(C)C(C(C)C(OC)C(C)C(=O)OCCC[P+](c4ccccc4)(c4ccccc4)c4ccccc4)O3)O2)O1` (stereo not shown) [2f], in assay [9], the “Selectivity index (SI) HaCaT / SW480” value amounted to 0.2 and the “Selectivity index (SI) V79 / SW480” value came to 1.9. In addition, in [10], the “Selectivity index (SI) HaCaT / SW620” value was 0.1 and the “Selectivity index (SI) V79 / SW620” value is listed as 1.4. In assay [11], the “Selectivity index (SI) HaCaT / PC3” value is on record as 0.2 and the “Selectivity index (SI) V79 / PC3” value turned out to be 2.3. In assay [1], the “Selectivity index (SI) HaCaT / MDA-MB-231” value worked out at 0.2, the “Selectivity index (SI) V79 / MDA-MB-231” value was 2.3 and the IC50 came to 1400 ± 200 nM. In assay [12], the “Selectivity index (SI) HaCaT / A549” value is recorded as 0.2 and the “Selectivity index (SI) V79 / A549” value amounted to 2.5. Besides, in assay [2], the “Selectivity index (SI) HaCaT / MiaPaCa” value was determined as 0.5, the “Selectivity index (SI) V79 / MiaPaCa” value was 5.3 and the IC50 came out at 600 ± 200 nM. In addition, the “mitochondrial ROS (mtROS) production” value with A549 cells is on record as “lack of electron transport chain ROS generation”. The “mitochondrial ROS (mtROS) production” value in the assay on MDA-MB-231 cells [13] is given as “lack of electron transport chain ROS generation”.
